Test results published in patent US9308182B2 (TEVA PHARMACEUTICAL INDUSTRIES, LTD., priority 2012, dated 2016).
Read-outs that look alike come from different tables or passages of the source.

The chains behind the UniProt entries cited, without tags or fusion partners.
UniProt P21396, whole entry: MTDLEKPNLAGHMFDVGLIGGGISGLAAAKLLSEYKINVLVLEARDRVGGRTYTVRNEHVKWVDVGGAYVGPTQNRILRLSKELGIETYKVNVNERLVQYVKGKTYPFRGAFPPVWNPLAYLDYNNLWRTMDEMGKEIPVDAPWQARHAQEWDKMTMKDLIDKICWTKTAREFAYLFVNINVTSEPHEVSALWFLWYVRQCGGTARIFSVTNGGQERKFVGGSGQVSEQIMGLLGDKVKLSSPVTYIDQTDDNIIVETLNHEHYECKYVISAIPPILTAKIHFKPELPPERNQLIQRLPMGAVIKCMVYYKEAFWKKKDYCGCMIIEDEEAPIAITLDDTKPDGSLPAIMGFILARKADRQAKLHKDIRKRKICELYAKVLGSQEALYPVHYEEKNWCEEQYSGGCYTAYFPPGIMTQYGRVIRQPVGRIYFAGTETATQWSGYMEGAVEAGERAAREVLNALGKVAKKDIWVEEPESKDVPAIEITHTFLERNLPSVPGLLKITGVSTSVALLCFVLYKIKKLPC
UniProt P19643, whole entry: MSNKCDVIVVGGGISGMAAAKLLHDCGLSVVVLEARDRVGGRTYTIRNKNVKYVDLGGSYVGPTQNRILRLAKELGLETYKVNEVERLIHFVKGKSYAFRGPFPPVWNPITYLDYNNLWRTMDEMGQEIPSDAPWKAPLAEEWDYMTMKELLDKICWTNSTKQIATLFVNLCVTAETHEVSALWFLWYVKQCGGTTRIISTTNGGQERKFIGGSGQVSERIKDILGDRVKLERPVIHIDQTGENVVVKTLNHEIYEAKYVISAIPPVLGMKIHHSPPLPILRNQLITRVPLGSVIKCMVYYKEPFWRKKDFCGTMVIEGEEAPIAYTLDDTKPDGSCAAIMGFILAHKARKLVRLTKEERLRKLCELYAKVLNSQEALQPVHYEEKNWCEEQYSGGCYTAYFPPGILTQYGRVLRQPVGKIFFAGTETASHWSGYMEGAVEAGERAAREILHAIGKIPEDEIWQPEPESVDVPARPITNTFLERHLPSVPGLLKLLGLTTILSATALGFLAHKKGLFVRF

Columns and labels:
MAO-A = MAO-A (Rattus norvegicus, UniProt P21396); assay: in vivo; details: po
Description: (§1) ALZET® osmotic minipumps are described in Perkins L, Peer C, and Murphy-Hackley P. “Chapter 21: The use of mini-osmotic pumps in continuous infusion studies” in Handbook of Pre-Clinical Continuous Intravenous Infusion, (Smith & Healing, eds., Taylor and Francis, 2000), the contents of which are incorporated herein by reference.
(§2) The osmotic minipumps were inserted subcutaneously with a single surgical procedure: after clipping the fur from the dorsal area and cleaning the skin with antiseptic skin preparation, about 1 cm long incision was made on the dorsum of the animal, midway between both scappulae. The pump was placed along the axis of the body to one side of the backbone. The incision was positioned about 1-2 cm caudal to the estimated caudal end of the minipump when it is in place.
(§3) After two weeks of treatment the animals were sacrificed. From each rat, brain (half) and a part of liver were dissected and frozen. The intestine was excised about ½ cm below the stomach about 1-2 cm long, washed with sucrose 0.32 Molar and frozen at −70° C.
(§4) Tissue homogenates were pre incubated (37° C.) in the presence of clorgyline or deprenyl to inhibit the activity of MAO-A or MAO-B respectively. For MAO-B determination, samples were incubated for 20 minutes with C^14 PEA 10 μM and for MAO-A determination samples were incubated 30 minutes with C^14 −5HT 100 μM as substrate Termination of the reaction was done by acidification. The labeled metabolites were extracted into toluene:ethyl acetate, and counted in a β counter.

MAO-B = MAO-B (Rattus norvegicus, UniProt P19643); assay: in vivo
Description: as §1, §2, §3, §4

[1] = read-out: Percent of MAO-A inhibition, intestine
[2] = rat, po, read-out: Percent of MAO-B inhibition, brain
[3] = rat, po, read-out: Percent of MAO-B inhibition, liver
[4] = rat, sc, read-out: Percent of MAO-B inhibition, brain
[5] = rat, sc, read-out: Percent of MAO-B inhibition, liver

- inhibition at 0.05 mg/kg/day (MAO-A; [1]): 29%
- inhibition at 0.4 mg/kg/day (MAO-A; [1]): 67%
- inhibition at 0.4 mg/kg/day (MAO-A; read-out: Percent of MAO-A inhibition, liver): 54%
- MAO-B activity, brain (MAO-B; brain, sc ALZET pumps, 0.8 mg/kg/day (salt), two weeks): 12 dpm
- MAO-B activity, liver (MAO-B; liver, oral, 0.8 mg/kg/day (salt), two weeks): −5 dpm
- inhibition at 0.05 mg/kg/day (MAO-B; [2]): 95%
- inhibition at 0.1 mg/kg/day (MAO-B; [2]): 98%
- inhibition at 0.2 mg/kg/day (MAO-B; [2]): 99%
- inhibition at 0.1 mg/kg/day (MAO-B; [3]): 97%
- inhibition at 0.2 mg/kg/day (MAO-B; [3]): 98%
- inhibition at 0.4 mg/kg/day (MAO-B; [3]): 99%
- inhibition at 0.02 mg/kg/day (MAO-B; [4]): 88%
- inhibition at 0.05 mg/kg/day (MAO-B; [4]): 97%
- inhibition at 0.1 mg/kg/day (MAO-B; [4]): 98%
- inhibition at 0.2 mg/kg/day (MAO-B; [4]): 99%
- inhibition at 0.2 mg/kg/day (MAO-B; [5]): 95%
- inhibition at 0.4 mg/kg/day (MAO-B; [5]): 97%
- inhibition at 0.8 mg/kg/day (MAO-B; [5]): 97%
Compound: C#CCN[C@@H]1CCc2ccccc21 [rasagiline, R(+)-N-propargyl-l-aminoindan]
